The term IC50 denotes the point on the concentration scale where inhibition reaches its midpoint.

Amino acid sequences for entries named in this document (tags omitted). Residues count along the entry.
UniProt P52699, 19-246: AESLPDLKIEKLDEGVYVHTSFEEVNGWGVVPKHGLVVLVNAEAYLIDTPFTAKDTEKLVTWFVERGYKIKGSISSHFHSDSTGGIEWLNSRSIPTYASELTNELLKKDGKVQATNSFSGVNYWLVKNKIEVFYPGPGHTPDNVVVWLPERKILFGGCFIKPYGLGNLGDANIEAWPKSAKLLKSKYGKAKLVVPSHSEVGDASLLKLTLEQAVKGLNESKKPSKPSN

These results are taken from publication PMC3463135 (Bioorganic & medicinal chemistry letters, 2012).

The target of this assay is recombinant IMP-1 (Serratia marcescens, UniProt P52699). The assay can be described thus: biochemical.

Consider `O=C(O)c1csc(-c2ccccc2)n1` [Compound 2], for which the concentration for half-maximal inhibition (IC50) was above 200 µM.
In the case of `O=C(O)[C@@H]1CSC(Cc2ccccc2)=N1` [Compound 3], the IC50 is above 200 µM.
Next, `O=C(O)[C@@H]1CSC(Cc2ccccc2)N1` (stereo partly shown) [Compound 6]: above 200 µM; `O=C(O)[C@@H]1CSC(c2ccccc2)N1` (stereo partly shown) [Compound 7]: above 200 µM.
The result for `O=C(O)[C@@H]1CSC(c2ccc(Cl)cc2)=N1` [Compound 8] reads above 200 µM; that for `O=C(O)[C@@H]1CSC(c2ccc(Br)cc2)=N1` [Compound 9], above 200 µM; that for `CC(=O)Nc1cccc(C2=N[C@H](C(=O)O)CS2)c1` [Compound 11], above 200 µM.
As for `CC(C)(C)OC(=O)Nc1cccc(C2=N[C@H](C(=O)O)CS2)c1` [Compound 12], the IC50 was above 200 µM.
The result for `O=C(O)[C@@H]1CSC(c2ccccc2O)=N1` [Compound 13] reads above 200 µM.
In the case of `O=C(Cc1ccccc1)NCC1=N[C@H](C(=O)O)CS1` [Compound 14], the IC50 is above 200 µM.
Next, `COc1cccc(CC(=O)NCC2=N[C@H](C(=O)O)CS2)c1` [Compound 15]: above 200 µM; `CC(C)(C)OC(=O)NCC1=N[C@H](C(=O)O)CS1` [Compound 16]: above 200 µM; `O=C(NCC1=N[C@H](C(=O)O)CS1)OCc1ccccc1` [Compound 17]: above 200 µM.
